ChEMBL document CHEMBL4425140, “Discovery of a Potent and Selective Coactivator Associated Arginine Methyltransferase 1 (CARM1) Inhibitor by Virtual Screening” (J Med Chem, 2016)

Columns and labels:
Assay type in all cases: cell-based
[1] = biological target: T1, Histone-arginine methyltransferase CARM1 (Homo sapiens) (UniProt Q86X55); assay: Binding affinity to full-length Halo-tagged human CARM1 (1 to 608 residues) expressed in 293-F cells assessed as change in melting temperature in presencee of SAM by Sypro orange dye based differential scanning fluorimetry
T1 sequence (whole entry): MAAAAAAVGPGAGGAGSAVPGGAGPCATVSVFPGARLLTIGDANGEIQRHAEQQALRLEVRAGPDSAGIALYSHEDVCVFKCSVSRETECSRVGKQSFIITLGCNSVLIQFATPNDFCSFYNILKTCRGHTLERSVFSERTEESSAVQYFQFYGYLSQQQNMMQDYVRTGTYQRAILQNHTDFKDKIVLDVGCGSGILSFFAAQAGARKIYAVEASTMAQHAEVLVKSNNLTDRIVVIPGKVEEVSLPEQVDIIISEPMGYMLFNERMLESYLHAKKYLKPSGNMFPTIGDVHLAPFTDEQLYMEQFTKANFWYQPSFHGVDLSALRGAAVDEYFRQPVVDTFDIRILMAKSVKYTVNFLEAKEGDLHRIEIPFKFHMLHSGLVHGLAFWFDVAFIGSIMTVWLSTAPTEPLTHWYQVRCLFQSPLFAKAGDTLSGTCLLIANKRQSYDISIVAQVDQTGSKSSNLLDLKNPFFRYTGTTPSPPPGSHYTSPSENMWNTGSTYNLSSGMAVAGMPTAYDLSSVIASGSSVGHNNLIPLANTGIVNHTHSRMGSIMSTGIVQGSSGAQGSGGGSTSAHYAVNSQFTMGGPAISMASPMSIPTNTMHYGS

[2] = biological target: T1, Histone-arginine methyltransferase CARM1 (Homo sapiens); assay: Binding affinity to full-length Halo-tagged human CARM1 (1 to 608 residues) expressed in 293-F cells assessed as change in aggregation temperature in presence of SAM by differential static light scattering
How it was run: (§1)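 Full-length human CARM1 (residues 1–608) expressed as a HaloTag fusion in FreeStyle 293-F cells, HaloTag-purified, tag removed with TEV. Heated from 30 to 80 °C at 1 °C/min; aggregation temperature shift read by static light scattering.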

[3] = biological target: T1, Histone-arginine methyltransferase CARM1 (Homo sapiens); assay: Inhibition of full-length Halo-tagged human CARM1 (1 to 608 residues) expressed in 293-F cells at 50 uM using [3H]-SAM and biotinylated histone peptides by scintillation proximity based radiometric assay
How it was run: (§2)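 Radiometric scintillation proximity assay. Tag-cleaved full-length human CARM1 (1–608) at 25 nM, with 0.7 μM C-terminally biotinylated H3 1–25 peptide and 1.9 μM [3H]-SAM in 20 mM bicine pH 8.5. Transfer of tritiated methyl to the peptide counted as cpm. Single compound concentration per line.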

[4] = biological target: T1, Histone-arginine methyltransferase CARM1 (Homo sapiens); assay: Binding affinity to full-length Halo-tagged human CARM1 (1 to 608 residues) expressed in 293-F cells assessed as change in aggregation temperature by differential static light scattering; how it was run: as §1
[5] = biological target: T1, Histone-arginine methyltransferase CARM1 (Homo sapiens); assay: Binding affinity to full-length Halo-tagged human CARM1 (1 to 608 residues) expressed in 293-F cells assessed as change in melting temperature by Sypro orange dye based differential scanning fluorimetry
[6] = biological target: T1, Histone-arginine methyltransferase CARM1 (Homo sapiens); assay: Inhibition of full-length Halo-tagged human CARM1 (1 to 608 residues) expressed in 293-F cells at 10 uM using [3H]-SAM and biotinylated histone peptides by scintillation proximity based radiometric assay; how it was run: as §2
[7] = Selectivity index, ratio of IC50 for RMT6 (unknown origin) to IC50 for full-length Halo-tagged human CARM1 (1 to 608 residues) expressed in 293-F cells

Row | Activity [1] | Activity [2] | inhibition [3] | ΔTm [4] | ΔTm [5] | inhibition [6] | SMILES | Ratio IC50 [7]
1 | Active | Active | Active | -2 °C | -2.4 °C | Active | Cc1cc(OCCNCCN)ccc1C(C)C | –
2 | – | – | Active | – | – | Active | CCC(c1ccc(OC)cc1)N(C)CCN (stereo not given) | –
3 | Active | Active | Active | 0.5 °C | 0.45 °C | Active | NCC(=O)NCCc1ccccc1 | –
4 | – | – | – | – | – | – | C[C@H](N)C(=O)NCc1cccnc1Oc1ccc(F)cc1F | > 7

Active and inactive are the calls of the source. No cut-off for these calls is given here.
